Assay results reported in patent US20130252930A1 (BIOMARIN PHARMACEUTICAL INC., priority 2010, published 2013).

The chains behind the UniProt entries cited, without tags or fusion partners.
UniProt P08686, whole entry: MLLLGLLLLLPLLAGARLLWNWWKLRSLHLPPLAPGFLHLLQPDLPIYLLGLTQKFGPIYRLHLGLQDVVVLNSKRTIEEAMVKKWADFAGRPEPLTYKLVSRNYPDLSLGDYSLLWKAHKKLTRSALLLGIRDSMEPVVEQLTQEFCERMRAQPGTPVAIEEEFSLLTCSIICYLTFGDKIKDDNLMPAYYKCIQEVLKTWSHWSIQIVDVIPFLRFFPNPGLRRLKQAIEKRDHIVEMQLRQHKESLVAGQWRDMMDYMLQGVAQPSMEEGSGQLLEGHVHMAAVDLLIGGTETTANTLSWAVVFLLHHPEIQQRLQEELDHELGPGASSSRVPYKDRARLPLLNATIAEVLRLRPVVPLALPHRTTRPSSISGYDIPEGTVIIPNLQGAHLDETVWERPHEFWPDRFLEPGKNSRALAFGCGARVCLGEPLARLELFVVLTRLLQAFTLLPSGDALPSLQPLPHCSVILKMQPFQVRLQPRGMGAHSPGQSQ
UniProt P05093, whole entry: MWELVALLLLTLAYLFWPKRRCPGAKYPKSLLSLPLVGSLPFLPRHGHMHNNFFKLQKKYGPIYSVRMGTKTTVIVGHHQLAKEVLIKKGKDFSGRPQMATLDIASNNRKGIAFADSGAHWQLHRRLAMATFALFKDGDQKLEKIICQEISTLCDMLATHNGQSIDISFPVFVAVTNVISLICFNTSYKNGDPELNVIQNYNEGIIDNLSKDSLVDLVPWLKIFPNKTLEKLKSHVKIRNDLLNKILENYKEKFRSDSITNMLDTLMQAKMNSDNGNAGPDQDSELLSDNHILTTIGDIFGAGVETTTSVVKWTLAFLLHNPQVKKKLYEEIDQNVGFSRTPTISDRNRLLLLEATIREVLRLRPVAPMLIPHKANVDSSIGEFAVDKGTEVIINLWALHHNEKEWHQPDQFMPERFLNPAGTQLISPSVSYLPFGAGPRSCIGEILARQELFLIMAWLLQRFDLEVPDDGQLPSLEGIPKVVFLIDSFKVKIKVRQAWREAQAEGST

Experiments:
[1] = molecular target: Cyp21 enzyme (Human HEK 293-Cyp21 stable transfected cells) (Homo sapiens, UniProt P08686); assay: CYP21-HEK293 enzymatic assay (% inhibition at 100 nM) (Biological Example 10); details: 100 nM compound, HEK 293-Cyp21 cells
[2] = test system: rat Cyp11B enzyme (rat adrenal mitochondria); assay: CYP11B enzymatic assay (% inhibition at 100 nM) (Biological Example 9); details: 100 nM compound, cortisol by ELISA
[3] = Rat liver microsome stability assay (Biological Example 8a); details: rat liver microsomes, 1 μM compound, NADPH
[4] = Human liver microsome stability assay (Biological Example 8b); details: human liver microsomes, 1 μM compound, NADPH
[5] = molecular target: CYP17 (human testicular microsome) (Homo sapiens, UniProt P05093); assay: CYP17 enzymatic assay (% inhibition at 10 nM), version 1 (Biological Example 5); assay type: biochemical; details: 10 nM compound, DHEA by ELISA

For `C[C@]12CC[C@H]3[C@@H](CCC4=CC(=O)CC[C@@]43C)C1=CC=C2c1cccnc1`, the “Biological Example No. 10: CYP21-HEK293 percent inhibition at 100 nM” value [1] was “W (W means the compound had a percent inhibition of greater than or equal to 30%)”, the “Biological Example No. 9: CYP11B percent inhibition at 100 nM” value [2] was “na (“na” means the compound was not active under the conditions tested)” and the “Biological Example No. 8a: rat liver microsome half life” value [3] was “J (J means the compound had a half life of greater than or equal to 1 minute but less than 10 minutes)”. For the same compound, the “Biological Example No. 8b: human liver microsome half life” value [4] was “R (R means the compound had a half life of greater than or equal to 1 minute but less than 50 minutes)” and the “Biological Example No. 5: CYP17 percent inhibition at 10 nM (version 1)” value [5] was “C (C means the compound had a percent inhibition of greater than or equal to 80% when tested at 10 nM)”.
